# The entries are a selection whose mix differs from that of the whole data set. Results filed as inconclusive are left out. A call without a number means that no potency is given here. Some structures show a salt or complex split into parts, the way the source records it. Activity calls are given as the source filed them. Calls follow the shape of the dose curve; as a rule, active = well fitted inhibition curve with a large enough effect; inconclusive = small, poorly fitted or top-dose-only effect; inactive = no such curve, though single readings can be large or run the other way.
# By UniProt entry, the sequences of proteins in these tests, tags left out.
# UniProt Q9UIF8, whole entry: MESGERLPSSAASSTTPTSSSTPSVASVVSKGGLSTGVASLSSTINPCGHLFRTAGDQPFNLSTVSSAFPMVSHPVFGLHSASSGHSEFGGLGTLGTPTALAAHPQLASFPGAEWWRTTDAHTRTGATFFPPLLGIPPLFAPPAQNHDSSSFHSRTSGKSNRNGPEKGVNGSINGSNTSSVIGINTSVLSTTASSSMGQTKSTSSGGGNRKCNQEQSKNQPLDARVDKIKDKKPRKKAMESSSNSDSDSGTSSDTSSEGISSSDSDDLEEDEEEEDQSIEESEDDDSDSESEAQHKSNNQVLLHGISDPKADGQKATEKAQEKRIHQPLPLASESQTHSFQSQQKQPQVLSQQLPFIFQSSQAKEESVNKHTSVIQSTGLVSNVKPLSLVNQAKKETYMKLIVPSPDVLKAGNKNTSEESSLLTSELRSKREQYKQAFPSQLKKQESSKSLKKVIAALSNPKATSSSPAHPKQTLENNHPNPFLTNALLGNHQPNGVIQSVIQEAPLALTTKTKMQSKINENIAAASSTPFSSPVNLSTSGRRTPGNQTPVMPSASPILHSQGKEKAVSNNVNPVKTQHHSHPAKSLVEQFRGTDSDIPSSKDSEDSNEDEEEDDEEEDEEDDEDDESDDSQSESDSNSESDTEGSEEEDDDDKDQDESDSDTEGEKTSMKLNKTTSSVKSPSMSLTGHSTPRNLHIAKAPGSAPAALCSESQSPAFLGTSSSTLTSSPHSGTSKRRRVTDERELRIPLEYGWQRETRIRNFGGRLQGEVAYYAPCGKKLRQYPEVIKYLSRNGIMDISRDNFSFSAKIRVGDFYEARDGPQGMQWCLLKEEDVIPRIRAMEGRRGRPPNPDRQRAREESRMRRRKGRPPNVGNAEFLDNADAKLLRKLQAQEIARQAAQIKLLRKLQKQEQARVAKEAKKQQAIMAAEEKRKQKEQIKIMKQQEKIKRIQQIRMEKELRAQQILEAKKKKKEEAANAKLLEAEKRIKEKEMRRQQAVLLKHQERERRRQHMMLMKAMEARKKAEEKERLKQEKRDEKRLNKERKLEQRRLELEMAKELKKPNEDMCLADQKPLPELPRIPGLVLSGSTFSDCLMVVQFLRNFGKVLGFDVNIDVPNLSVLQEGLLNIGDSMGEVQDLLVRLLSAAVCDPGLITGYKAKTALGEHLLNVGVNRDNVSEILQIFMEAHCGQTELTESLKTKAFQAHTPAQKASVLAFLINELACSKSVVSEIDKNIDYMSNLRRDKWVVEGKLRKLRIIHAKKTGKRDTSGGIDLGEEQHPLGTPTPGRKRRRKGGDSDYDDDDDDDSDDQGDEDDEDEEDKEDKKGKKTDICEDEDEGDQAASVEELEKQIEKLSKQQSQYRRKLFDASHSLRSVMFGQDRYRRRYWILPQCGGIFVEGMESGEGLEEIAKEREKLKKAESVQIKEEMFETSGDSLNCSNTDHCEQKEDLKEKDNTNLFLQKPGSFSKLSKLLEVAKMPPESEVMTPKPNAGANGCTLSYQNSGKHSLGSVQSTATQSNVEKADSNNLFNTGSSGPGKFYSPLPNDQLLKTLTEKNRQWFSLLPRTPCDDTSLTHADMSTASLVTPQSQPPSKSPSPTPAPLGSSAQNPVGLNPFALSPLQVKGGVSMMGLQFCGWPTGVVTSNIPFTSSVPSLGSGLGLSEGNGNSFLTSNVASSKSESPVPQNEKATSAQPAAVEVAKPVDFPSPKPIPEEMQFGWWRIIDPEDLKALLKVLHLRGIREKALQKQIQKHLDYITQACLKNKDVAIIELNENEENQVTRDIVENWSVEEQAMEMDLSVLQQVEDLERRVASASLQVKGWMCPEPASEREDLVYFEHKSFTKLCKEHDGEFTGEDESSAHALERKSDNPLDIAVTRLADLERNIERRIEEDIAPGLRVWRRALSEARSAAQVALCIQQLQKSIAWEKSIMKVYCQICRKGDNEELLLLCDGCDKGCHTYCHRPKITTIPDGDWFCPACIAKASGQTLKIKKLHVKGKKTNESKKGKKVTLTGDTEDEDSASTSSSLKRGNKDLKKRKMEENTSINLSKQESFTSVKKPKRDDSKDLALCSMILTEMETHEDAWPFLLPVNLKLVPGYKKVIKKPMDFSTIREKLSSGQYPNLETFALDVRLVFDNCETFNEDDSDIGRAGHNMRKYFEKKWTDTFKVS
# Target: Bromodomain adjacent to zinc finger domain protein 2B (Homo sapiens) (UniProt Q9UIF8)
# Experiment: qHTS Assay for Inhibitors of BAZ2B; also: nearly all actives have a fitted effect of over 60% in size
# Conditions: AlphaScreen BAZ2B-H3K14Ac peptide displacement; series mostly up to 114 µM
# Potency is read from the fitted curve at half-maximal effect.
row,Structure (SMILES),Potency
1,Cc1ccc(OCC(C)C)c(CN(CCCl)CCCl)c1,active: 70.8 µM
2,CCOC(=O)N1CCC(Nc2cccc(C)c2)CC1,active: 79.4 µM
3,COc1cc(C(=O)NCC2(N(C)C)CCCCC2)ccc1OC(F)F,inactive
4,COc1ccccc1C(=O)NCC1(N2CCOCC2)CCCCC1,inactive
5,CCOC(=O)N1CCC(Nc2ccc(F)cc2)CC1,inactive
6,COc1ccc(NC2CCN(CCc3ccccc3)CC2)c(OC)c1,active: 44.7 µM
7,CCCCOc1ccc(C(=O)NCC2(N3CCOCC3)CCCCC2)cc1,inactive
8,O=C(NCC1(N2CCCCC2)CCCCC1)c1ccc(F)cc1,inactive
9,COc1ccc(Cl)cc1C(=O)NCC1(N2CCOCC2)CCCCC1,inactive
10,O=C(NCC1(N2CCCCC2)CCCCC1)c1ccc(Cl)s1,inactive
11,N#CC1(Nc2ccccc2)CCN(Cc2ccccc2)CC1,inactive
12,O=C(OC1CN2CCC1CC2)C1c2ccccc2Oc2ccccc21 (centres undefined),inactive
13,CCOC(=O)N1CCC(Nc2ccc(OC)cc2)CC1,inactive
14,Cc1cc(C)cc(N(C(=O)c2ccccc2)C2CCN(C(=O)OC(C)(C)C)CC2)c1,inactive
15,O=C(NCC1(N2CCCCC2)CCCCC1)c1ccc(Cl)nc1,inactive
16,CSc1ccccc1C(=O)NCC1(N2CCCCC2)CCCCC1,inactive
17,COc1ccc(C(=O)NCC2(N3CCCCC3)CCCCC2)c(OC)c1OC,inactive
18,CC(C)(C)OC(=O)N1CCC(N(C(=O)c2ccccc2)c2ccc(F)cc2)CC1,inactive
19,COc1ccc(C(=O)NCC2(N3CCCCC3)CCCCC2)cc1,inactive
20,O=C(NCC1(N2CCCCC2)CCCCC1)c1cccs1,inactive
21,O=C(NCC1(N2CCCCC2)CCCCC1)c1ccc(=O)[nH]c1,inactive
22,CCCOc1ccc(C(=O)NCC2(N(C)C)CCCCC2)cc1OC,inactive
23,CCCCOc1ccccc1C(=O)NCC1(N2CCOCC2)CCCCC1,inactive
24,O=C(OC1CN2CCC1CC2)c1ccc([N+](=O)[O-])cc1 (centres undefined),inactive
25,O=C(NCC1(N2CCCCC2)CCCCC1)c1cncc(Br)c1,inactive

row,Structure (SMILES),Potency
1,COc1ccc2c(c1O)-c1c(O)c(OC)cc3c1[C@H](C2)[N+](C)(C)CC3.O=[N+]([O-])c1cc([N+](=O)[O-])c([O-])c([N+](=O)[O-])c1[O-],inactive
2,COc1cc(OC)c(C(=O)NCC2(N(C)C)CCCCC2)cc1OC,inactive
3,CN(C)c1cccc(C(=O)NCC2(N3CCCCC3)CCCCC2)c1,inactive
4,COc1ccc(CN(CCCl)CCCl)cc1Cl,inactive
5,COc1cc(C(=O)NCC2(N3CCCCC3)CCCCC2)ccc1OC(F)F,inactive
6,CC(C)c1ccc(C(=O)NCC2(N3CCOCC3)CCCCC2)cc1,inactive
7,CN1CCN(CCOC(=O)C(O)(c2ccccc2)c2ccccc2)CC1,inactive
8,O=C(NCC1(N2CCCCC2)CCCCC1)c1cccc(C(F)(F)F)c1,inactive
9,CCCOc1cccc(C(=O)NCC2(N3CCOCC3)CCCCC2)c1,inactive
10,N#CC1(Nc2ccccc2)CCN(CCc2ccccc2)CC1,inactive
11,CCN1CCC(Nc2ccc(Cl)cc2)CC1,inactive
12,O=C(NCC1(N2CCCCC2)CCCCC1)c1cccc([N+](=O)[O-])c1,inactive
13,CCOc1ccc(C(=O)NCC2(N3CCOCC3)CCCCC2)cc1,inactive
14,CSc1ccc(C(=O)NCC2(N3CCOCC3)CCCCC2)cc1,inactive
15,O=C(NCC1(N2CCCCC2)CCCCC1)c1ccc(OC(F)F)cc1,inactive
16,CN(C)C1(CNC(=O)c2cccc(C#N)c2)CCCCC1,inactive
17,CCCN1CCC(Nc2cc(OC)cc(OC)c2)CC1,inactive
18,O=C(NCC1(N2CCOCC2)CCCCC1)c1ccccc1,inactive
19,c1ccc(CN2CCC(Nc3ccccc3)CC2)cc1,inactive
20,CCOC(=O)C(CC)C1=NC(C)(C)Cc2ccccc21.O=[N+]([O-])c1cc([N+](=O)[O-])c(O)c([N+](=O)[O-])c1 (centres undefined),inactive
21,O=C(NCC1(N2CCOCC2)CCCCC1)c1ccccc1[N+](=O)[O-],inactive
22,N#Cc1ccc(C(=O)NCC2(N3CCCCC3)CCCCC2)cc1,inactive
23,CC(C)(C)OC(=O)N1CCC(N(C(=O)c2ccccc2)c2ccc(Cl)cc2)CC1,inactive
24,O=C(NCC1(N2CCOCC2)CCCCC1)c1ccc([N+](=O)[O-])cc1,inactive
25,O=C(O)c1cccc(Nc2c([N+](=O)[O-])cc([N+](=O)[O-])cc2[N+](=O)[O-])c1,inactive

row,Structure (SMILES),Potency
1,CCc1cc(C(=O)NCC2(N3CCCCC3)CCCCC2)sc1C,inactive
2,O=C(OC1CN2CCC1CC2)C1c2ccccc2C=Cc2ccccc21 (centres undefined),inactive
3,CCOC(=O)N1CCC(Nc2ccc(C)cc2)CC1,inactive
4,N/C(=N\O)c1c(N)no[n+]1[O-],inactive
5,COc1ccc(C(=O)NCC2(N3CCOCC3)CCCCC2)cc1OC,inactive
6,O=C(NCC1(N2CCOCC2)CCCCC1)c1cc(Br)ccc1Cl,inactive
7,CN1CCC(Nc2ccc(Cl)cc2)CC1,inactive
8,COc1cccc(C(=O)N(c2cc(C)cc(C)c2)C2CCN(C(=O)OC(C)(C)C)CC2)c1,inactive
9,COc1cc(C(=O)NCC2(N3CCOCC3)CCCCC2)cc(OC)c1OC,inactive
10,COc1cc(OC)cc(C(=O)NCC2(N3CCOCC3)CCCCC2)c1,inactive
11,CCC(CO)(C(=O)OC1CN2CCC1CC2)c1ccccc1 (centres undefined),inactive
12,O=C(O)C1(Nc2ccccc2)CCN(Cc2ccccc2)CC1,inactive
13,CC(C)(C)OC(=O)N1CCC(Nc2ccccc2)CC1,inactive
14,CCCOc1ccc(C(=O)NCC2(N(C)C)CCCCC2)cc1,inactive
15,CCOc1ncccc1C(=O)NCC1(N2CCOCC2)CCCCC1,inactive
16,Cc1ccccc1C(=O)NCC1(N(C)C)CCCCC1,inactive
17,CN(C)c1ccc(C(=O)NCC2(N3CCCCC3)CCCCC2)cc1,inactive
18,O=C(NCC1(N2CCCCC2)CCCCC1)c1ccco1,inactive
19,CC(C)(C)c1ccc(C(=O)NCC2(N3CCOCC3)CCCCC2)cc1,inactive
20,CCN1CCC(Nc2cccc(F)c2)CC1,inactive
21,Fc1ccccc1NC1CCN(Cc2ccccc2)CC1,active: 39.8 µM
22,Cc1ccc(C(=O)NCC2(N3CCCCC3)CCCCC2)o1,inactive
23,CN(C)C1(CNC(=O)c2ccc(C(C)(C)C)cc2)CCCCC1,inactive
24,COc1cc(OC)cc(C(=O)NCC2(N3CCCCC3)CCCCC2)c1,inactive
